One assay deals with D(2) dopamine receptor (Rattus norvegicus, UniProt P61169). In words: The binding affinity at the Dopamine receptor D2 determined using [3H]spiperone.
Assay [1] addresses 5-hydroxytryptamine receptor 2A (Rattus norvegicus, UniProt P14842). In words: The binding affinity at 5-hydroxytryptamine 2A receptor was determined using [3H]ketanserin.

By UniProt entry, the sequences of proteins in these tests, tags left out.
UniProt P61169, whole entry: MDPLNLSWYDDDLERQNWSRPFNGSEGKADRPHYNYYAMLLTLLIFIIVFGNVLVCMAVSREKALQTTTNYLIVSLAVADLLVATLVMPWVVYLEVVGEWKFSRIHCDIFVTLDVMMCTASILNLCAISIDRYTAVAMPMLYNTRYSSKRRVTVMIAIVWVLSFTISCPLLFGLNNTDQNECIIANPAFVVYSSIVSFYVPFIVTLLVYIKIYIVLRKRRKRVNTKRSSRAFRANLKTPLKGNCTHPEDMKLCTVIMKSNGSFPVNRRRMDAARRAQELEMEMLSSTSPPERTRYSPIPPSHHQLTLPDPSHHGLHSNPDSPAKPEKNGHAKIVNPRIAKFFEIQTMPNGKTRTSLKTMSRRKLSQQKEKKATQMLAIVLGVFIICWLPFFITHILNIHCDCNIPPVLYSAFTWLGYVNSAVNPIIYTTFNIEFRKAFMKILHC
UniProt P14842, whole entry: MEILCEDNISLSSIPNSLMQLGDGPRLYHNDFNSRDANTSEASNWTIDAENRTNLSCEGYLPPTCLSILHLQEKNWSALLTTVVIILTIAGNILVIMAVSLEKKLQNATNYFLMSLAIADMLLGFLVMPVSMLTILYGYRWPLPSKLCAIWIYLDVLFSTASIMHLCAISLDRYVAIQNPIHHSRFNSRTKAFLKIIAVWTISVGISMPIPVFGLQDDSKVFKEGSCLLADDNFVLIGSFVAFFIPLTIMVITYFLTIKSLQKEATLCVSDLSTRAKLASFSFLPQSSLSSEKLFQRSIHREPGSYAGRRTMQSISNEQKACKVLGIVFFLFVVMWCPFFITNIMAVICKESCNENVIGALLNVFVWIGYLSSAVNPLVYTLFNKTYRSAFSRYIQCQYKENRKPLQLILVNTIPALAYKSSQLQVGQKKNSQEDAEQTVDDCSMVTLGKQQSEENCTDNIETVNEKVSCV

Turning to `CN1CCN2c3ccccc3Cc3ccccc3C2C1` (racemic) [MIANSERIN], on D(2) dopamine receptor, the inhibition constant (Ki) (commonly the dissociation constant of the complex between target and ligand, obtained from inhibition or displacement) amounted to 1000 nM. Consider `CN1CCN2c3ncccc3Cc3ccccc3C2C1` (racemic) [MIRTAZAPINE], for which the IC50 (in general, the concentration needed to halve the response being measured) in assay [1] was found to be 2 nM.

These data come from ChEMBL document CHEMBL1135518 (J Med Chem, 2002).
